These results are taken from paper PMC3938192 (ACS chemical biology, 2013).

The structures appear in SMILES notation.

The target of this test is T1, Pkd1-WT (Homo sapiens, UniProt Q15139).
T1 sequence (Q15139 1-912): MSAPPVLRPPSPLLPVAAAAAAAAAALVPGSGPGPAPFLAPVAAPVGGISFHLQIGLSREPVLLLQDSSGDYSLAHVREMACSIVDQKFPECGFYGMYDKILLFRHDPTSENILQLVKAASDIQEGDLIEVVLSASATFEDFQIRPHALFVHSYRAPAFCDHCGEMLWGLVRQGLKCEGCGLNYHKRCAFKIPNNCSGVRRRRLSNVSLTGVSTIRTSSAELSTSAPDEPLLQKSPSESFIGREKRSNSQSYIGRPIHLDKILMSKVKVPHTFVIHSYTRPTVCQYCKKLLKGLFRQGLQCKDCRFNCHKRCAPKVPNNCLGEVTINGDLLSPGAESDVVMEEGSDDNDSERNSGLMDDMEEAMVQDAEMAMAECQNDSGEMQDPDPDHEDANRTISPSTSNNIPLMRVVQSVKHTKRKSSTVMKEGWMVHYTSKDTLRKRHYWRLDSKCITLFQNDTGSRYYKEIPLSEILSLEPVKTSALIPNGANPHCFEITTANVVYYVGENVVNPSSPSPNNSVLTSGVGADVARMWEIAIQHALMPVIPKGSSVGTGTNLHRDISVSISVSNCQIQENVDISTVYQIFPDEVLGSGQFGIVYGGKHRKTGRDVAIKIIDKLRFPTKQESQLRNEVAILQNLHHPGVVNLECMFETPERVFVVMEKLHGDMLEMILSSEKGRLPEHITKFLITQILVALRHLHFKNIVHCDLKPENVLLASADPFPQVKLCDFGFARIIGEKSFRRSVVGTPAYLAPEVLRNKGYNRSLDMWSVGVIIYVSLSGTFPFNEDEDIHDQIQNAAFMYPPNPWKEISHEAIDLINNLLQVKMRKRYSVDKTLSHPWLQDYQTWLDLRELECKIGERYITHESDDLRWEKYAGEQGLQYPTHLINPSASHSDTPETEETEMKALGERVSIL
It is filed as biochemical. To be noted: read-out: IC50 for Pkd1-WT in vitro.

Consider `CC(C)(C)n1nc(-c2cccc3ccccc23)c2c(N)ncnc21` [1NA-PP1], for which the IC50 was 0.15 µM.
